{
  "source": "paper PMC4543428",
  "about": "(European journal of pharmacology, 2015)",
  "biological_target": "T1, sigma2 receptor (Mus musculus, UniProt Q8VD00)",
  "T1 sequence (Q8VD00 1-176)": "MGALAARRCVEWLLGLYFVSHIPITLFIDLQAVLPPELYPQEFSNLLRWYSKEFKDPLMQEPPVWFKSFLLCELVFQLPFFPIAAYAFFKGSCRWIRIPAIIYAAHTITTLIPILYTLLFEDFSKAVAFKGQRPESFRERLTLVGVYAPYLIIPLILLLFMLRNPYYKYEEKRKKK",
  "test": "Sigma2 receptor competition binding against [3H]DTG /",
  "details": "3.0 nM [3H]DTG / 500 nM (+)-pentazocine; 60 min; 25 °C; mouse lung membranes",
  "data": [
    {"smiles": "CC(C)=CCN1CC[C@]2(C)c3cc(O)ccc3C[C@H]1[C@H]2C", "note": "[(+)-Pentazocine, (+)-pentazocine]", "values": [
      {"measurement": "Sigma2 nH (pseudo-Hill slope)", "value": "0.94 ± 0.10"}
    ]}
  ]
}
